Experimental data reported in patent US8772265B2, “Water soluble curcumin compositions for use in anti-cancer and anti-inflammatory therapy” (Universite Libre de Bruxelles, priority 2008, dated 2014).
Like-named read-outs stand apart in the source and are kept apart here.

Assays:
[1] = Stability of curcumin lysinate in blood, man; assay type: in vitro ADME; details: human blood
Experimental: (§1) Weigh+/−precisely 5.14 mg of curcumin lysinate in a 100 ml flask
(§2) Bring up to the gauge line with methanol for HPLC.
(§3) Venous blood from all the species studied was collected in citrated tubes and homogenised.
(§4) Collect 950 μL of blood. Add 50 μl of the parent solution of curcumin lysinate i.e. a final concentration of 5.10-5 M of curcumin lysinate.
(§5) Homogenise. Incubation time: one hour at 5° C., 20° C. and 37° C.
(§6) Following incubation each sample is centrifuged in order to obtain the PPP (Platelet Poor Plasma)
(§7) Conditions of preparation: 2000 G, Duration: 10 minutes, Temperature: 5° C. Centrifuge Eppendorf 5804R
(§8) 100 μl pp of each sample is collected, to which is added 300 μl of methanol (precipitation of proteins).
(§9) Centrifuging: 10000 G Duration: 10 minutes Temperature 5° C.
(§10) The floating substance is dosed by HPLC.

[2] = Stability of curcumin lysinate in blood, horse; assay type: in vitro ADME
Experimental: as §1, §2, §3, §4, §5, §6, §7, §8, §9, §10

[3] = Stability of curcumin lysinate in blood, dog; assay type: in vitro ADME; details: initial 5.10-5 M
Experimental: as §1, §2, §3, §4, §5, §6, §7, §8, §9, §10

[4] = Stability of curcumin lysinate in blood, sheep; assay type: in vitro ADME
Experimental: as §1, §2, §3, §4, §5, §6, §7, §8, §9, §10

[5] = Stability of curcumin lysinate in blood, cow; assay type: in vitro ADME
Experimental: as §1, §2, §3, §4, §5, §6, §7, §8, §9, §10

[6] = Solubilities in water (20° C.); assay type: physicochemical
Description: The compound according to the invention allows therefore to increase the solubility of curcumin derivatives in aqueous solutions which in turn enables IV administrations and/or increases their bioavailability. The table below presents the solubilities of the various intermediates.

[7] = Solubility and stability of curcumin lysinate in aqueous HP-beta-CD solution with lysine base (HPLC dosage); assay type: physicochemical; details: 1,028 g curcumin lysinate, 6.56 g HP-beta-CD, 292.4 mg L-Lysine base in 100 ml distilled water
[8] = Stability of curcumin lysinate in blood, rat; assay type: in vitro ADME
Experimental: as §1, §2, §3, §4, §5, §6, §7, §8, §9, §10

[9] = Stability of curcumin lysinate in blood, pig; assay type: in vitro ADME
Experimental: as §1, §2, §3, §4, §5, §6, §7, §8, §9, §10

[10] = Stability of curcumin lysinate in blood, rabbit; assay type: in vitro ADME
Experimental: as §1, §2, §3, §4, §5, §6, §7, §8, §9, §10

[11] = Influence of different cyclodextrins on curcumin solubility; assay type: physicochemical; details: FIGS. 11a and 11b
Description: In order to test the solubility of curcumin, it was derivatised with one of the following cyclodextrins: • beta-cyclodextrin (Cavamax W7 Pharma lot 70P277), • alpha-cyclodextrin (Cavamax W6 Pharma Wacker 60P304), • RAMEB Randomly Methylated cyclodextrins (Wacker, lot 71P015), • HP-gamma-CD (Wacker, lot 83P002), • Crismeb (roquette lot 765342) • HP-beta-CD (wacker lot 74T003), • beta-cyclodextrin (Cavamax W7 Pharma lot 70P277) plus alpha-cyclodextrin (Cavamax W6 Pharma Wacker 60P304)

[12] = one hour at 5° C., initial 5.10-5 M

Curcumin Lysinate
% of the initial concentration ([1]; one hour at 5° C.): 93% | % of the initial concentration ([1]; one hour at 20° C.): 40% | % of the initial concentration ([1]; one hour at 37° C.): 26% | % of the initial concentration ([2]; one hour at 5° C.): 98% | % of the initial concentration ([2]; one hour at 20° C.): 49% | % of the initial concentration ([2]; one hour at 37° C.): 40% | concentration of curcumin lysinate after incubation in blood ([3]; one hour at 5° C.): below detectable limit | concentration of curcumin lysinate after incubation in blood ([3]; one hour at 20° C.): below detectable limit | concentration of curcumin lysinate after incubation in blood ([3]; one hour at 37° C.): below detectable limit | % of initial concentration ([4]; one hour at 5° C.): 20% | concentration of curcumin lysinate after incubation in blood [4, 12]: 1.10-5 M | concentration of curcumin lysinate after incubation in blood ([4]; one hour at 20° C.): below detectable limit | concentration of curcumin lysinate after incubation in blood ([4]; one hour at 37° C.): below detectable limit | % of initial concentration ([5]; one hour at 5° C.): 20% | concentration of curcumin lysinate after incubation in blood [5, 12]: 1.10-5 M | concentration of curcumin lysinate after incubation in blood ([5]; one hour at 20° C.): below detectable limit | concentration of curcumin lysinate after incubation in blood ([5]; one hour at 37° C.): below detectable limit | solubility ([6]; Water (20° C.)): +/−0.05 mg/ml | concentration of curcumin lysinate in solution, optimised conditions [7]: 2.10^−2 M | % of the initial concentration ([8]; one hour at 5° C.): 96% | % of the initial concentration ([8]; one hour at 20° C.): 47% | % of the initial concentration ([8]; one hour at 37° C.): 39% | % of initial concentration ([9]; one hour at 5° C.): 20% | concentration of curcumin lysinate after incubation in blood [9, 12]: 1.10-5 M | concentration of curcumin lysinate after incubation in blood ([9]; one hour at 20° C.): below detectable limit | concentration of curcumin lysinate after incubation in blood ([9]; one hour at 37° C.): below detectable limit | % of the initial concentration ([10]; one hour at 5° C.): 94% | % of the initial concentration ([10]; one hour at 20° C.): 42% | % of the initial concentration ([10]; one hour at 37° C.): 31%

hydroxypropyl-gamma-cyclodextrin [HP-gamma-CD]
effect of the cyclodextrin on curcumin solubility [11]: clearly increase the solubility of curcumin | solubility [6]: +/−500 mg/ml

hydroxypropyl-gamma-cyclodextrin complex of curcumin lysinate [NDS28]
solubility [6]: >21 mg/mL
